According to ChEMBL document CHEMBL1121863:
Where “and” joins values, the source holds several entries; their conditions need not be identical. Equal values may be shown once. Calls of active or inactive are those of the source. The rule behind the calls is not given here.

Chains of the proteins cited; added tags and fusions are not shown. Lines headed by an entry give the natural chain unless they say otherwise; changes in a name come on top.
UniProt P11388: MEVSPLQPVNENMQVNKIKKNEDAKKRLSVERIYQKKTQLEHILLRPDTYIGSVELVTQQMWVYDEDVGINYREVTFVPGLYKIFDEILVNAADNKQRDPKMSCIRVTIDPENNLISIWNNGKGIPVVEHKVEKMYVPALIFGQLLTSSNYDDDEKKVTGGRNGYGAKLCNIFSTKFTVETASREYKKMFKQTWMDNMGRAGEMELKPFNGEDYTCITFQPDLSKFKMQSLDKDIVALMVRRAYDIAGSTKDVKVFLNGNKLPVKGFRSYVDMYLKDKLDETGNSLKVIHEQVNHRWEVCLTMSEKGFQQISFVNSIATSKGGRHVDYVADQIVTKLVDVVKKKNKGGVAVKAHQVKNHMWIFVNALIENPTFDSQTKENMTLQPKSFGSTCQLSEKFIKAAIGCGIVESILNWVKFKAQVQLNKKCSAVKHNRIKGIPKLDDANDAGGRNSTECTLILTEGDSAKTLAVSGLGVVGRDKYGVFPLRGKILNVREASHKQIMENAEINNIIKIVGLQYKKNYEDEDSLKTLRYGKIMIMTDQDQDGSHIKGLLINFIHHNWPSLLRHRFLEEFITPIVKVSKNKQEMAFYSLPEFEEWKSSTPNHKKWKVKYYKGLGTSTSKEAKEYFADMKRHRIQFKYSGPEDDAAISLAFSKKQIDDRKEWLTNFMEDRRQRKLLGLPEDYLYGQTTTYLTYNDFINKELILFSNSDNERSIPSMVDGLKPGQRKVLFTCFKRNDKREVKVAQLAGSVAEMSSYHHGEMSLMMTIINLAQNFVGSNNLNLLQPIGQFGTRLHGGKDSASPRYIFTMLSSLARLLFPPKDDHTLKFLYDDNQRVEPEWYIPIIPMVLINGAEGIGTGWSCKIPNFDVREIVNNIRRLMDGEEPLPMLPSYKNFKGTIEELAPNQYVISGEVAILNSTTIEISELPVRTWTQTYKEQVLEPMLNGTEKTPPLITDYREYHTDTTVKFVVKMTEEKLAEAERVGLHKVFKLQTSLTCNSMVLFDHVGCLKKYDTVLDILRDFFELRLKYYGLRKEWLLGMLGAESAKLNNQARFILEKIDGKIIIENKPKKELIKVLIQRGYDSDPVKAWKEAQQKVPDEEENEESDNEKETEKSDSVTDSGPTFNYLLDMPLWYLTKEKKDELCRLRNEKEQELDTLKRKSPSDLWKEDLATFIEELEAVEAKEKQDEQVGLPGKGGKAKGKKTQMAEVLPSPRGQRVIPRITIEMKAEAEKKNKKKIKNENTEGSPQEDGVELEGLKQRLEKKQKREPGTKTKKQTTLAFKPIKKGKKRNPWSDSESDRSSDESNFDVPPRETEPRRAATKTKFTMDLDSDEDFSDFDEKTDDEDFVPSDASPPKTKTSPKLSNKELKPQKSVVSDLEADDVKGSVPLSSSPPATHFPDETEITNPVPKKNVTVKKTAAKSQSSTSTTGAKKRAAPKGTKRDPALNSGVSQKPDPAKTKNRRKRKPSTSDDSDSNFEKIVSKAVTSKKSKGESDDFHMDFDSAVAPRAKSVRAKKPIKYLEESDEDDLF
UniProt Q02880: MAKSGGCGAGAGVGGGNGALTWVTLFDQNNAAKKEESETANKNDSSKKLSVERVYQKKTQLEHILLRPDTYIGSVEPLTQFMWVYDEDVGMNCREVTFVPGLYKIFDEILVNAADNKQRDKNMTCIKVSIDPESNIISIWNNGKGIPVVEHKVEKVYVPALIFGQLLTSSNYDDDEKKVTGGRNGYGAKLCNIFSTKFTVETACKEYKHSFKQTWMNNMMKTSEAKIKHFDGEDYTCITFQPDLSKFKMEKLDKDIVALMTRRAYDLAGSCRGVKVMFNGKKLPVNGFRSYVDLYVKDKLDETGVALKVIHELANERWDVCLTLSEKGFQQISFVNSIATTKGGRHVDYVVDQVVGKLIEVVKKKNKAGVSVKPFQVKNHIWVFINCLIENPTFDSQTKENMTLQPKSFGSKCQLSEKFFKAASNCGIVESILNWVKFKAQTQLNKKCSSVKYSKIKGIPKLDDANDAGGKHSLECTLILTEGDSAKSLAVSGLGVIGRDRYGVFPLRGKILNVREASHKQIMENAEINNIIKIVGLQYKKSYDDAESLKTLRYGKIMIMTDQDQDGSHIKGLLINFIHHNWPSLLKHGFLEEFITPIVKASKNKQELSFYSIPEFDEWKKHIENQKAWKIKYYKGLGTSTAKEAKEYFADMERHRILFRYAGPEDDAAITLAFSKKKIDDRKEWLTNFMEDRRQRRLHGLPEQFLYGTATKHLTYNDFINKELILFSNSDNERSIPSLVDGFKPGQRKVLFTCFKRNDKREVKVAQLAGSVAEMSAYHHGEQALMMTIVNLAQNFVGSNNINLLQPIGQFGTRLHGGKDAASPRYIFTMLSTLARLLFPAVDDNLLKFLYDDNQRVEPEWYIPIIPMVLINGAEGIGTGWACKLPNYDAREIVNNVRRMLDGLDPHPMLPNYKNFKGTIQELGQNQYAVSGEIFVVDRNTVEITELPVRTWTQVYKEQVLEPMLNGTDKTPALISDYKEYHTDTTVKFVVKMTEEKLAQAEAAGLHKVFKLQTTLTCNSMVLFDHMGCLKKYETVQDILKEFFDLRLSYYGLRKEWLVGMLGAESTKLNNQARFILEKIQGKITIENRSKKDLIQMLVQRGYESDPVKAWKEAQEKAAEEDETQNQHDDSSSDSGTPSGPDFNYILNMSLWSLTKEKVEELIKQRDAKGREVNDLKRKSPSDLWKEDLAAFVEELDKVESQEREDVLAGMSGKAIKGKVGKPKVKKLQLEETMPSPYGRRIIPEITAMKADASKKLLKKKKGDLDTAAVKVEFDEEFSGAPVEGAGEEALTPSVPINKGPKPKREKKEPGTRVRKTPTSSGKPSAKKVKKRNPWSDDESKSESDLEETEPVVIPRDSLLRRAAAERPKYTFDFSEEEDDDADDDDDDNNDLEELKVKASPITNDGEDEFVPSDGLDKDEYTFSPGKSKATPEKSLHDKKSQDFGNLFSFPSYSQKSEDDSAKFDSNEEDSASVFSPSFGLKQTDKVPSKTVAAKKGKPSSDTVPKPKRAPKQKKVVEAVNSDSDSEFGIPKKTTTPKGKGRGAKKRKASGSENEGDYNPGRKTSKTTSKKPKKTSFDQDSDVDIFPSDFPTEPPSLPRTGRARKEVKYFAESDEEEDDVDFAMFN

Experiments:
[1] = target: T1, Sterol O-acyltransferase 1 (Cricetulus griseus) (UniProt Q60457); assay: Compound was tested for the change in serum cholesterol (SC) levels by the inhibition of ACAT in hamster at 5 mg/kg p.o.
T1 sequence (whole entry): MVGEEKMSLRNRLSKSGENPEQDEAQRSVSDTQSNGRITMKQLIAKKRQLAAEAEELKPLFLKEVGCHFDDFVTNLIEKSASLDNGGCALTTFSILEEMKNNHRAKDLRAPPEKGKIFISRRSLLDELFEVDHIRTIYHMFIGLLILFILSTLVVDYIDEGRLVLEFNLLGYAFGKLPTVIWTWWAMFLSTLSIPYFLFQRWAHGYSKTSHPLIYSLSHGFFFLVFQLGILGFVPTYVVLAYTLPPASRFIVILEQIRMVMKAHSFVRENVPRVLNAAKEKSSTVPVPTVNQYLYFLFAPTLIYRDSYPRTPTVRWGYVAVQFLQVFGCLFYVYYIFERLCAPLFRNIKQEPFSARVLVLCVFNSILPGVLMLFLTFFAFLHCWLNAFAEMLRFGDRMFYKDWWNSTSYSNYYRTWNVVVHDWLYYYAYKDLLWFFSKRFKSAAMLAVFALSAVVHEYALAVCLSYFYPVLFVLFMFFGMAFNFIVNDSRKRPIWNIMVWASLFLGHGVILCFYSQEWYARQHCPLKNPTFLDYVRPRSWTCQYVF

[2] = target: T1, Sterol O-acyltransferase 1 (Cricetulus griseus); assay: Compound was tested for the change in liver cholesteryl ester (CE) levels by the inhibition of ACAT in hamster at 5 mg/kg p.o.
[3] = target: T1, Sterol O-acyltransferase 1 (Cricetulus griseus); assay: Compound was tested for the change in serum cholesterol (SC) levels by the inhibition of ACAT in hamster at 50 mg/kg p.o.
[4] = target: T1, Sterol O-acyltransferase 1 (Cricetulus griseus); assay: Compound was tested for the change in liver cholesteryl ester (CE) levels by the inhibition of ACAT in hamster at 50 mg/kg p.o.
[5] = target: T2, Sterol O-acyltransferase 1 (Homo sapiens) (UniProt P35610); assay: In vitro percent inhibition against Acyl coenzyme A:cholesterol acyltransferase (ACAT) at a dose of 25 uM
T2 sequence (whole entry): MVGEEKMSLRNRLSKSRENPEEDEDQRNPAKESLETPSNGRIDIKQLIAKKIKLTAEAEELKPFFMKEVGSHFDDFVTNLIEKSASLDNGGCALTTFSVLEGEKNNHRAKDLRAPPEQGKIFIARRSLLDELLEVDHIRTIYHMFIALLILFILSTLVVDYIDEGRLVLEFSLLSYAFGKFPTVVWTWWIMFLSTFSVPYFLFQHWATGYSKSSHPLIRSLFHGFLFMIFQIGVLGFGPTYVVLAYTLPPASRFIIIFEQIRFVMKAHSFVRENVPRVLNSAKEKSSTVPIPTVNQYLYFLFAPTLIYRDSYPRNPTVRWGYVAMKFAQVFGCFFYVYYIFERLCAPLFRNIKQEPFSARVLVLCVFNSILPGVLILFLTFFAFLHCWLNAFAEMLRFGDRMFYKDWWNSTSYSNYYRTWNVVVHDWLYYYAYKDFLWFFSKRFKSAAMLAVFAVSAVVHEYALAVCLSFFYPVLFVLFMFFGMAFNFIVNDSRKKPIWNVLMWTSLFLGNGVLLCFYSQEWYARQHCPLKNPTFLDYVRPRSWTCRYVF

[6] = target: T1, Sterol O-acyltransferase 1 (Cricetulus griseus); assay: Compound was tested for the change in serum cholesterol (SC) levels by the inhibition of ACAT in hamster at 100 mg/kg p.o.; NE=No effect
[7] = target: T1, Sterol O-acyltransferase 1 (Cricetulus griseus); assay: Compound was tested for the change in liver cholesteryl ester (CE) levels by the inhibition of ACAT in hamster at 100 mg/kg p.o.; NE=No effect
[8] = target: T1, Sterol O-acyltransferase 1 (Cricetulus griseus); assay: Compound was tested for the change in serum cholesterol (SC) levels by the inhibition of ACAT in hamster at 50 mg/kg p.o.; NE=No effect
[9] = target: T1, Sterol O-acyltransferase 1 (Cricetulus griseus); assay: Compound was tested for the change in liver cholesteryl ester (CE) levels by the inhibition of ACAT in hamster at 50 mg/kg p.o.; NE=No effect
[10] = target: T1, Sterol O-acyltransferase 1 (Cricetulus griseus); assay: Compound tested for the change in liver cholesteryl ester (CE) levels by the inhibition of ACAT in hamster at 50 mg/kg p.o.; NE=No effect
[11] = target: T1, Sterol O-acyltransferase 1 (Cricetulus griseus); assay: Compound tested for the change in liver cholesteryl ester (CE) levels by the inhibition of ACAT in hamster at 100 mg/kg p.o.; NE=No effect
[12] = test system: Mus musculus; assay: Compound was evaluated for the analgesic activity by administering through subcutaneous route in hotplate test; G means not active until 25 mg/Kg Sc
[13] = target: T3, Sterol O-acyltransferase 1 (Rattus norvegicus) (UniProt O70536); assay: Compound was tested for the change in serum cholesterol (SC) levels by the inhibition of ACAT in cholesterol fed rat
T3 sequence (whole entry): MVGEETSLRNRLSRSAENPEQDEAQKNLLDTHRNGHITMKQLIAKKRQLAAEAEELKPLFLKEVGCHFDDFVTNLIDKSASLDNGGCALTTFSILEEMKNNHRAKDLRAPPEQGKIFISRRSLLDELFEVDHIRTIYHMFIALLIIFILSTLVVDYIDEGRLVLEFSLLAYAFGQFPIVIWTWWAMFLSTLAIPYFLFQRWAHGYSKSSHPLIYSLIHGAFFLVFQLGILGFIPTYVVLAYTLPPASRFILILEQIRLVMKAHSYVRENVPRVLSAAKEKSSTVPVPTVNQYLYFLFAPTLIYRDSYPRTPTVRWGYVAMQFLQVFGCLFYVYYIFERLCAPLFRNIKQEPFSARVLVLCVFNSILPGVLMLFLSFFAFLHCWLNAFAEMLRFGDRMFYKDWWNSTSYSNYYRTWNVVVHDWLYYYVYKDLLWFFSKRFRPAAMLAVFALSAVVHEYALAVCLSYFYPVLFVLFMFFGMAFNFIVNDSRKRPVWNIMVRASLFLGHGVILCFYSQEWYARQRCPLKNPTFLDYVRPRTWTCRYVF

[14] = target: T1, Sterol O-acyltransferase 1 (Cricetulus griseus); assay: Compound was tested for the change in serum cholesterol (SC) levels by the inhibition of ACAT in hamster at 10 mg/kg p.o.
[15] = Compound was tested for topoisomerase mediated cleavage of DNA; Each + indicates a 2 to 4 fold increase
[16] = target: DNA topoisomerase II (Homo sapiens) (UniProt P11388+Q02880); assay: Compound was tested for DNA Topoisomerase II mediated cleavage of DNA; Each (+) indicates 1 to 2 -fold increase
[17] = target: T1, Sterol O-acyltransferase 1 (Cricetulus griseus); assay: Compound was tested for the change in serum cholesterol (SC) levels by the inhibition of ACAT in hamster at 100 mg/kg p.o.
[18] = target: T1, Sterol O-acyltransferase 1 (Cricetulus griseus); assay: Compound was tested for the change in liver cholesteryl ester (CE) levels by the inhibition of ACAT in hamster at 100 mg/kg p.o.

Structure (SMILES): O=C(N[C@@H]1c2ccccc2C[C@@H]1c1ccc(O)cc1)C(c1ccccc1)c1ccccc1
- Change in cholesterol [1]: -7%
- Change in cholesterol [2]: -88%

Structure (SMILES): CC[C@]1(c2ccccc2)C(=O)N(c2ccc(OC)cc2)[C@@H]1c1ccccc1
- Change in cholesterol [3]: -15%
- Change in cholesterol [4]: -39%

Structure (SMILES): CCCCCCCC/C=C\CCCCCCCC(=O)N1C[C@H](c2ccccc2)[C@H]1c1ccccc1
- inhibition [5]: 4%
- Change in cholesterol [6]: inactive
- Change in cholesterol [7]: inactive

Structure (SMILES): CC[C@]1(CCCc2ccccc2)C(=O)N(c2ccc(OC)cc2)[C@@H]1c1ccccc1
- Change in cholesterol [3]: 12%
- Change in cholesterol [4]: -29%

Structure (SMILES): CCCCCCCCCC[C@H]1C(=O)N(c2ccc(OC)cc2)[C@@H]1c1ccccc1
- Change in cholesterol [8]: inactive
- Change in cholesterol [9]: inactive

Structure (SMILES): COc1ccc(N2C(=O)[C@H](CCCc3ccccc3)[C@H]2c2ccccc2)cc1
- Change in cholesterol [3]: No effect
- Change in cholesterol [10]: -15%

Structure (SMILES): CC[C@@]1(CCCc2ccccc2)C(=O)N(c2c(OC)cc(OC)cc2OC)[C@@H]1c1ccccc1
- Change in cholesterol [3]: No effect
- Change in cholesterol [9]: -31%

Structure (SMILES): Nc1ccc(CC(NC(=O)C(c2ccccc2)c2ccccc2)c2ccccc2)cc1 (configuration not stated)
- Change in cholesterol [3]: No effect
- Change in cholesterol [9]: -80%

Structure (SMILES): COc1ccc(N2C(=O)[C@H](c3ccccc3)[C@H]2c2ccccc2)cc1
- inhibition [5]: 64%
- Change in cholesterol [6]: inactive
- Change in cholesterol [11]: inactive

Structure (SMILES): OC1CCN(C2(c3ccccc3)CCCCC2)CC1
- ED50 [12]: inactive

Structure (SMILES): COc1ccc(N2C(=O)[C@@](CCCc3ccccc3)(c3ccccc3)[C@H]2c2ccccc2)cc1
- Change in cholesterol [3]: -11%
- Change in cholesterol [4]: -16%

Structure (SMILES): COc1ccc([C@@H]2[C@@H](CCCc3ccccc3)C(=O)N2c2ccc(OC)cc2)cc1
- ED50 [13]: 2 mg/kg
- Change in cholesterol [14]: -21% and -43%

Structure (SMILES): COc1cc(NS(C)(=O)=O)ccc1Nc1c2ccccc2nc2ccccc12
- Activity [15]: +
- Activity [16]: ++

Structure (SMILES): CCCCCCCCCCC(C)(C)C(=O)Nc1c(OC)cc(OC)cc1OC
- Change in cholesterol [3]: -10%
- Change in cholesterol [4]: -67%

Structure (SMILES): COc1ccc(N2C(=O)[C@@](C(=O)Cc3ccccc3)(c3ccccc3)[C@H]2c2ccccc2)cc1
- inhibition [5]: 4%
- Change in cholesterol [17]: -10%
- Change in cholesterol [18]: -26%
